Measurements: patent US20250248980A1, “IMMUNE MODULATORY AGENTS” (PRESIDENT AND FELLOWS OF HARVARD COLLEGE, priority 2022, published 2025)

Target: TNF-a receptor (TNF-R1 reporter cells) (Homo sapiens, UniProt P19438)
Assay: TNF-a-receptor GFP reporter cell screen
Conditions: reducing TNF-a-receptor reporter activities; maximal effect at high compound concentrations

Structure (SMILES) | Emax [%]
Cc1cccnc1NC(=O)CCN(C)CCc1nc2cc(F)ccc2[nH]1 | 51
COc1ccc(C(C)C)cc1S(=O)(=O)NCCNc1ccncc1C | 29
